Experiment [1] is filed under the species Mus musculus. Briefly: Protective index, ratio of TD50 for mouse to ED50 for inhibition of maximal electroshock-induced seizure in mouse. (Protection in the maximal electroshock model is a classic sign of anticonvulsant action.)
In experiment [2] the test system is Mus musculus. Briefly: Protective index, ratio of TD50 for mouse to ED50 for inhibition of subcutaneous pentylenetetrazole-induced seizure in mouse.

With `CCCC(CCC)C(=O)[O-].[Na+]` [VALPROATE SODIUM], the Ratio was 1.6 in experiment [1] and 2.9 in experiment [2].

Source of the values: ChEMBL document CHEMBL1629500, “Synthesis and anticonvulsant activity of N-3-arylamide substituted 5,5-cyclopropanespirohydantoin derivatives” (Eur J Med Chem, 2010).
